# Screening data from PubChem BioAssay.
# The list is not random: actives were taken first. Their share in the collection is about 1.8%.
# Yeast UUG start – alters start codon recognition fidelity in yeast; AID 602363; activity score, % at 18.7 µM; 350,000 tested, 0.13% active; S. cerevisiae UUG-firefly luciferase reporter, luminescence/redox ratio;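 active means replicate mean at a twofold rise or more, about +100% in these data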;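 further: firefly luciferase made from a UUG start codon reports start codon fidelity; reporter light over untreated wells divided by growth signal over untreated wells; some hits fall short of that in this replicate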
# Cneo AK release – causes C. neoformans cell lysis | adenylate kinase release luminescence, 4 h; normalised: neutral wells 0, clomiphene wells 100 | lysis activity, % at 15 µM | 360,000 tested, 0.2% active | AID 651654;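 active = mean lysis activity across replicates of at least 80%, whatever share of replicates individually reach that level; inactive = mean lysis activity below 80%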
#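 Material – Cryptococcus neoformans yeast cells · Quantity – 5 × 10^6 yeast cells/mL · Buffer or medium – YPD medium · Compound – single dose · Timing – 4 h static compound exposure, 37 °C, read 1 h post-reagent · Signal – adenylate kinase release luminescence · Read-out basis – lysis from increased AK signal · Benchmarks – Clomiphene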
# E-selectin induc – E-selectin induction on HUVECs | 260,000 tested, 0.37% active | HUVEC E-selectin immunofluorescence imaging; normalized: neutral wells 0, TNF-alpha wells 100 | activation, % at 7.58 µM;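 active = mean E-selectin-positive cell signal at least 10% of the positive control, reached in at least 60% of replicates, without over 20% cell loss; inconclusive = no rule given, readout overlaps actives, possibly toxicity-flagged; inactive = the rest, including those meeting only one limit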
#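 System: HUVEC / Compound: single concentration / Signal: immunofluorescence imaging / Read-out: percent E-selectin-positive cells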
# DENV2 CPE rescue – DENV2-induced cell death inhibition; DENV2-infected cells, cytopathic effect rescue, plate reader; CPE inhibition, % at 9.99 µM; 350,000 tested, 1.7% active; in the data active = CPE inhibition above about 20%, passing the limit was not always enough; inconclusive = no clear call, values can overlap the other calls; tested in BHK-21 cells;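 also: 0% = median of neutral control wells and 100% = median of positive control wells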
# The depositor's hits bear a star; u = inconclusive; x = no result given.
# Assay codes – A = Yeast UUG start; B = Cneo AK release; C = E-selectin induc; D = DENV2 CPE rescue
1: CN1c2ccc(-c3ccccc3F)cc2[C@H]2[C@H](CCN2S(=O)(=O)c2ccccc2)[C@@H]1CO
  A: -11 | B: 6 | C: 1 | D: 21*
2: O=C(Cc1ccc(S(=O)(=O)N2CCOCC2)s1)NCC(=O)Nc1ccccc1Br
  A: -8 | B: 0 | C: 0 | D: 126*
3: O=C(Cc1ccc(S(=O)(=O)N2CCOCC2)s1)Nc1ccccc1Br
  A: 1 | B: 3 | C: x | D: 8
4: CCOc1ccc(NC(=O)Cc2ccc(S(=O)(=O)N3CCOCC3)s2)cc1OCC
  A: -17 | B: 2 | C: -4 | D: 65*
5: CCC(=O)N[C@@H]1CC[C@H](CC(=O)NCC2CC2)O[C@H]1CO
  A: x | B: x | C: 0 | D: 12
6: Cn1cnc(S(=O)(=O)N2C[C@H](O)COC[C@H]3O[C@H](CC(=O)NC4CCCC4)CC[C@@H]32)c1
  A: x | B: -5 | C: 0 | D: 20
7: O=C(C[C@@H]1CC[C@H]2[C@@H](COC[C@H](O)CN2Cc2ccccc2F)O1)NC1CCC1
  A: x | B: 97* | C: 0 | D: x
8: COC(=O)C[C@H]1CC[C@H]2[C@@H](COC[C@H](O)CN2S(=O)(=O)c2ccc(F)cc2)O1
  A: 5 | B: 50 | C: 0 | D: x
9: O=C(C[C@@H]1CC[C@@H]2[C@H](COC[C@H](O)CN2S(=O)(=O)c2ccc(Oc3ccccc3)cc2)O1)NC1CCC1
  A: x | B: 95* | C: 0 | D: 6
10: Cn1cnc(S(=O)(=O)N2C[C@@H](O)COC[C@@H]3O[C@@H](CC(=O)NC4CCCC4)CC[C@H]32)c1
  A: x | B: -2 | C: 0 | D: 114*
11: O=C(O)C[C@@H]1CC[C@@H]2[C@H](COC[C@H](O)CN2S(=O)(=O)c2ccc(F)cc2)O1
  A: x | B: 83* | C: 0 | D: 6
12: CCCC#Cc1ccc2c(c1)O[C@@H](CN(C)CC1CCOCC1)[C@H](C)CN([C@H](C)CO)S2(=O)=O
  A: x | B: -2 | C: 0 | D: -4
13: CC(C)C(=O)Nc1ccc2c(c1)C(=O)N(C)[C@@H]1CC[C@H](CC(=O)NCC3CC3)O[C@H]1CO2
  A: 2 | B: -4 | C: 0 | D: -9
14: CC(=O)NCCCC[C@@H]1NC(=O)[C@@H]2C[C@H](C(=O)O)[C@H](c3ccc(O)cc3)N2C1=O
  A: -9 | B: 8 | C: x | D: 5
15: CC(=O)NCCCC[C@@H]1NC(=O)[C@@H]2C[C@H](C(=O)NCc3ccc(F)cc3)[C@H](c3ccc(O)cc3)N2C1=O
  A: -2 | B: 3 | C: x | D: 20*
16: O=C1CCCC(c2ccccc2)N1 (centres undefined)
  A: x | B: x | C: x | D: 60*
17: CCCN=C1N(CC)C[C@@H]2[C@@H]3C(=O)N(C)C(=O)[C@@H]3[C@](CC)(C(=O)OC)N12
  A: -29 | B: 3 | C: x | D: 28*
18: CCN1C[C@@H]2[C@@H]3C(=O)N(C)C(=O)[C@@H]3[C@](CC)(C(=O)OC)N2C1=NC
  A: -12 | B: 1 | C: 4 | D: 2
19: Cc1ccc(SCc2cc(=O)n(C)[nH]2)cc1
  A: x | B: x | C: 82* | D: 0
20: Nc1c(Cl)cc(C2=NCCn3nc4ccccc4c32)cc1Cl
  A: -8 | B: 12 | C: x | D: 22*
21: Cc1ccc(S(=O)(=O)N(C)C[C@H]2Oc3c(NC(=O)Nc4ccc(C(F)(F)F)cc4)cccc3C(=O)N([C@@H](C)CO)C[C@H]2C)cc1
  A: -13 | B: -4 | C: 0 | D: 8
22: CCO[C@@H]1OC(C(=O)N2CCN(C)CC2)=C[C@H](c2ccccc2)[C@H]1CCCO
  A: 6 | B: -21 | C: x | D: -3
23: COn1c(-n2nc(C)cc2C)nc2ccccc2c1=O
  A: -17 | B: 91* | C: x | D: x
24: C/C=C/c1ccc([C@@H]2[C@@H](CO)N3C(=O)CN(Cc4ccccc4)C[C@H]23)cc1
  A: x | B: x | C: 0 | D: 25*
25: COCC#Cc1ccc([C@H]2[C@H]3CN(S(=O)(=O)c4cccc(OC)c4)CCCCN3[C@H]2CO)cc1
  A: -7 | B: -1 | C: -1 | D: 23*
26: C/C=C/c1ccc([C@H]2[C@@H](C#N)N(S(=O)(=O)c3cccc(F)c3)[C@H]2CO)cc1
  A: x | B: 91* | C: 1 | D: u
27: C/C=C/c1ccc([C@H]2[C@@H](CO)N(S(=O)(=O)c3cccc(F)c3)[C@H]2C#N)cc1
  A: x | B: 1 | C: 1 | D: -3
28: C/C=C/c1ccc([C@H]2[C@@H](CO)N3CCCCN(S(=O)(=O)c4ccccc4)C[C@@H]23)cc1
  A: -3 | B: 0 | C: 0 | D: 115*
29: COc1cccc(S(=O)(=O)Nc2ccc3c(c2)OC[C@H](C)N(Cc2ccccc2F)C[C@@H](C)[C@@H](OC)CN(C)C3=O)c1
  A: x | B: x | C: 0 | D: x
30: COCC(=O)Nc1ccc2c(c1)C(=O)N(C)C[C@@H](OC)[C@@H](C)CN(C(=O)c1ccccc1F)[C@H](C)CO2
  A: -13 | B: -1 | C: 1 | D: 0
31: C[C@@H](O)C#Cc1cnc2c(c1)C(=O)N([C@@H](C)CO)C[C@H](C)[C@@H](CN(C)C(=O)c1ccccc1F)O2
  A: -2 | B: -3 | C: x | D: 0
32: COc1ccc(S(=O)(=O)Nc2ccc3c(c2)CC(=O)N([C@@H](C)CO)C[C@@H](C)[C@H](CN(C)S(=O)(=O)c2ccc(Cl)cc2)O3)cc1
  A: -3 | B: 3 | C: 0 | D: -10
33: COc1ccc(C#Cc2ccc([C@@H]3[C@@H](CO)N4CCCCN(S(=O)(=O)c5ccccc5)C[C@@H]34)cc2)cc1
  A: 21 | B: 9 | C: x | D: 32*
34: COc1ccc(C#Cc2ccc([C@H]3[C@@H](CO)N4CCCCN(S(=O)(=O)c5ccccc5)C[C@@H]34)cc2)cc1
  A: -2 | B: 0 | C: 0 | D: 82*
35: COc1ccc(-c2nnc3ccc(SCC(=O)N4CCCCC4)nn23)cc1OC
  A: -7 | B: -1 | C: -1 | D: 30*
36: O=C(C[C@H]1C[C@@H]2c3cc(NC(=O)NC4CCCC4)ccc3O[C@@H]2[C@@H](CO)O1)NCc1ccc(Cl)cc1
  A: 4 | B: 3 | C: 0 | D: 3
37: COc1ccccc1N1C(=O)C2CCC(c3ccccc3)CC2C1=O (centres undefined)
  A: 4 | B: -3 | C: x | D: 23*
38: Cc1noc(C)c1S(=O)(=O)Nc1ccc2c(c1)CC(=O)N([C@@H](C)CO)C[C@H](C)[C@H](CN(C)C(=O)NC1CCCCC1)O2
  A: -6 | B: -4 | C: 4 | D: 4
39: C[C@@H]1CN([C@H](C)CO)C(=O)Cc2cc(NS(=O)(=O)c3ccc(F)cc3)ccc2O[C@@H]1CN(C)C(=O)NC1CCCCC1
  A: 16 | B: -2 | C: 0 | D: -2
40: COc1ccc(S(=O)(=O)Nc2ccc3c(c2)CC(=O)N([C@H](C)CO)C[C@@H](C)[C@@H](CN(C)C(=O)NC2CCCCC2)O3)cc1
  A: 5 | B: 1 | C: 55* | D: u
41: C[C@H]1CN([C@@H](C)CO)C(=O)Cc2cc(NS(=O)(=O)c3ccc(Cl)cc3)ccc2O[C@H]1CN(C)C(=O)NC1CCCCC1
  A: -2 | B: 1 | C: -2 | D: 32*
42: Cc1noc(C)c1S(=O)(=O)Nc1ccc2c(c1)CC(=O)N([C@@H](C)CO)C[C@@H](C)[C@H](CN(C)C(=O)NC1CCCCC1)O2
  A: 0 | B: -4 | C: 7 | D: 22*
43: C[C@@H]1CN([C@@H](C)CO)C(=O)Cc2cc(NS(=O)(=O)c3ccc(Cl)cc3)ccc2O[C@H]1CN(C)C(=O)NC1CCCCC1
  A: 6 | B: -6 | C: 0 | D: -14
44: COc1ccc(S(=O)(=O)Nc2ccc3c(c2)CC(=O)N([C@@H](C)CO)C[C@H](C)[C@@H](CN(C)C(=O)NC2CCCCC2)O3)cc1
  A: -6 | B: 0 | C: 79* | D: -3
45: O=C(C[C@H]1CC[C@H]2[C@@H](COC[C@H](O)CN2CC2CC2)O1)NCC1CC1
  A: x | B: 1 | C: 0 | D: 6

# Pulled one by one from the list above:
# Assay codes – A = Yeast UUG start; B = Cneo AK release; C = E-selectin induc; D = DENV2 CPE rescue
32: COc1ccc(S(=O)(=O)Nc2ccc3c(c2)CC(=O)N([C@@H](C)CO)C[C@@H](C)[C@H](CN(C)S(=O)(=O)c2ccc(Cl)cc2)O3)cc1
  A: -3 | B: 3 | C: 0 | D: -10
10: Cn1cnc(S(=O)(=O)N2C[C@@H](O)COC[C@@H]3O[C@@H](CC(=O)NC4CCCC4)CC[C@H]32)c1
  A: x | B: -2 | C: 0 | D: 114*

# Screen by screen, quoted from above.
# Cneo AK release for nos. 31–40: -3, 3, 9, 0, -1, 3, -3, -4, -2, 1
# Yeast UUG start for nos. 31–40: -2, -3, 21, -2, -7, 4, 4, -6, 16, 5
